Compound activity: PubChem BioAssay, Broad Institute
In the library only some 1% were active in any assay of this set; here they are far more common.
CDK5 p35 inh: blocks human CDK5/p35 kinase activity; Q00535+Q15078; Recombinant CDK5/p35, ADP-Glo luminescence, 60 min; inhibition, % at 10 µM; 330,000 tested, 0.01% active;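 active = highest replicate inhibition of at least 50% and at least 75% of replicates reaching 50%; inconclusive = only one of the two criteria met; inactive = both criteria failed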
Yeast UUG start: modulators of start codon recognition fidelity in yeast; AID 602363; activity score, % at 18.7 µM; S. cerevisiae UUG-firefly luciferase reporter, luminescence/redox ratio; 0.13% of 350,000 active;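 active = replicate mean at a twofold rise or more, about +100% in these data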;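 note: firefly luciferase made from a UUG start codon reports start codon fidelity; reporter light over untreated wells divided by growth signal over untreated wells; some hits fall short of that in this replicate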
C2C12 statin: suppression of simvastatin myotoxicity; rescue of ATP level, % at 7.49 µM; AID 602340; 330,000 tested, 0.78% active; C2C12 myotubes + simvastatin, ATP luminescence, 48 h; scaled: DMSO 0, geranylgeraniol control 100;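 active = mean ATP rescue above about 67%, or every replicate alone reaching that limit, limit read from the data, passing the limit was not always enough; inconclusive = no clear call, values can overlap the other calls; inactive = mean under the limit and some replicate under it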;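 note: myotubes were challenged with 10 µM simvastatin during compound exposure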
Cneo AK release: Cryptococcus neoformans lysis via adenylate kinase release. lysis activity, % at 15 µM. C. neoformans lysis, adenylate kinase release luminescence, 4 h; normalised: neutral wells 0, clomiphene wells 100. 360,000 tested, 0.2% active;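 active = mean lysis activity across replicates of at least 80%, whatever share of replicates individually reach that level; inactive = mean lysis activity below 80%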
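Schedule: static 4 h at 37 °C with compound, 1 h detection; system: C. neoformans cells; benchmarks: Clomiphene as positive control; buffer or medium: fresh YPD medium; measure: luminescence rise reflecting yeast cell lysis; measured by: luminescent adenylate kinase detection reagent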
Rtt109 Vps75: C. albicans Rtt109 histone acetyltransferase inhibition; Q5AAJ8; purified Rtt109/Vps75, ThioGlo CoA-SH fluorescence, 4 h; inhibition, % at 34.9 µM; 330,000 tested, 0.16% active; AID 540336;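 active = inhibition of at least 50% in every replicate; inconclusive = best replicate reaches 50% inhibition but some replicates fall short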
A number is an active result; . = inactive; ? = inconclusive; / = not tested or not shown.

SMILES | CDK5 p35 inh | Yeast UUG start | C2C12 statin | Cneo AK release | Rtt109 Vps75
CC(C)C(=O)Nc1ccc2c(c1)C(=O)N(C)[C@@H]1CC[C@@H](CC(=O)NCc3ccc(F)cc3)O[C@@H]1CO2 | / | . | . | . | /
O=C(CN1CCC(C(O)(c2ccccc2)c2ccccc2)CC1)Nc1cc(Cl)ccc1Cl | . | . | 90.2 | . | .
O=C(CN1CCN(C(=O)c2ccco2)CC1)Nc1cc(C(F)(F)F)ccc1Cl | . | . | 104.2 | . | .
O=C(CN1CCC(C(O)(c2ccccc2)c2ccccc2)CC1)Nc1ccccc1 | . | . | . | . | .
CO[C@H]1CN(C)C(=O)c2cc(NC(C)=O)ccc2OC[C@H](C)N(C(=O)c2ccncc2)C[C@H]1C | / | . | . | . | /
CCOc1cc(C(=O)NCCOC)ccc1OC | . | . | 120.5 | . | .
COc1ccc(CCNC(=O)c2ccc(OC)c(OC)c2)cc1OC | . | . | . | . | .
CCOc1ccccc1OCCOc1ccccc1CC | . | . | 127.7 | . | .
O=C(C[C@H]1CC[C@H]2[C@@H](COC[C@@H](O)CN2S(=O)(=O)c2ccc(Oc3ccccc3)cc2)O1)NC1CCC1 | / | / | . | 85.7 | /
Cc1ccc(S(=O)(=O)N2C[C@@H](O)COC[C@@H]3O[C@H](CC(=O)NCc4ccc5c(c4)OCO5)CC[C@H]32)cc1 | / | . | . | 109.3 | /
Cc1ccc(S(=O)(=O)N2C[C@@H](O)COC[C@H]3O[C@@H](CC(=O)NCc4ccc5c(c4)OCO5)CC[C@@H]32)cc1 | / | . | . | . | /
CCCNC(=O)C[C@@H]1CC[C@@H]2[C@H](COC[C@H](O)CN2S(=O)(=O)c2ccc(Oc3ccccc3)cc2)O1 | / | / | . | . | /
CCCNC(=O)C[C@H]1CC[C@H]2[C@@H](COC[C@@H](O)CN2S(=O)(=O)c2ccc(Oc3ccccc3)cc2)O1 | / | / | . | 90.4 | /
CNC(=O)C[C@@H]1CC[C@@H]2[C@H](COC[C@H](O)CN2S(=O)(=O)c2ccc(Oc3ccccc3)cc2)O1 | / | . | . | . | /
Cc1noc(C)c1S(=O)(=O)Nc1ccc2c(c1)CC(=O)N([C@H](C)CO)C[C@H](C)[C@@H](CN(C)C(=O)Nc1ccc(F)cc1)O2 | / | . | . | . | /
C[C@H]1CCCCO[C@H](CN(C)Cc2ccc(Cl)c(Cl)c2)[C@@H](C)CN([C@@H](C)CO)C(=O)c2cc(NC(=O)CCC(F)(F)F)ccc2O1 | / | . | / | . | /
O=C(C1CCCO1)N1CCN(Cc2c(O)ccc3ccccc23)CC1 (configuration not stated) | . | . | / | . | 142.0
CCOC(=O)N1CCN(C(=O)C(c2ccccc2)c2ccccc2)CC1 | . | / | 114.8 | / | .
CCOC(=O)N1CCN(Cc2c(O)ccc3ccccc23)CC1 | . | . | . | . | 133.2
Cc1ccc(CN2CCN(C(=O)C3CCCO3)CC2)cc1 (configuration not stated) | . | . | . | . | .
C[C@@H]1CCCCO[C@@H](CN(C)Cc2ccc3c(c2)OCO3)[C@H](C)CN([C@@H](C)CO)C(=O)c2cc(NC(=O)CCCN(C)C)ccc2O1 | / | . | . | . | /
CS(=O)(=O)N1[C@H](C(=O)NC2CCC2)[C@@H](CO)[C@@H]2Cn3c(ccc(-c4ccccc4)c3=O)[C@@H]21 | / | / | . | . | /
Cc1cccc(-n2c(O)c(C=NC3CCS(=O)(=O)C3)c3ccccc3c2=O)c1 (configuration not stated) | . | . | 138.0 | . | ?
Cc1cc(C)cc(-n2c(O)c(C=NC3CCS(=O)(=O)C3)c3ccccc3c2=O)c1 (configuration not stated) | . | . | . | . | .
Cc1noc(C)c1NC(=O)Nc1ccc2c(c1)C(=O)N([C@H](C)CO)C[C@H](C)[C@H](CN(C)C(=O)Nc1ccc3c(c1)OCO3)OCCCC[C@@H](C)O2 | / | . | / | . | /
CC(C)CC#Cc1cnc2c(c1)C(=O)N([C@@H](C)CO)C[C@H](C)[C@@H](CN(C)C(=O)Cc1ccccc1)O2 | / | . | . | . | /
C[C@H]1CN([C@@H](C)CO)C(=O)c2cc(C#CC3(O)CCCC3)cnc2O[C@@H]1CN(C)Cc1cccnc1 | / | . | . | 101.3 | /
CC(C)CC#Cc1cnc2c(c1)C(=O)N([C@H](C)CO)C[C@@H](C)[C@H](CN(C)C(=O)Cc1ccccc1)O2 | / | . | 100.9 | . | /
C[C@@H]1CN([C@@H](C)CO)C(=O)c2cc(-c3cncnc3)cnc2O[C@H]1CN(C)C(=O)CN1CCOCC1 | / | / | . | 105.1 | /
